From BigSolDB 2.1

CC[C@H]1OC(=O)C[C@@H](O)[C@H](C)[C@@H](O[C@@H]2O[C@H](C)[C@@H](O[C@H]3C[C@@](C)(O)[C@@H](O)[C@H](C)O3)[C@H](N(C)C)[C@H]2O)[C@@H](CC=O)C[C@@H](C)C(=O)/C=C/C(C)=C/[C@@H]1CO[C@@H]1O[C@H](C)[C@@H](O)[C@@H](OC)[C@H]1OC.O=C(O)[C@H](O)[C@@H](O)C(=O)O
solubility (mole fraction)
Conditions	278.15 K	283.15 K	288.15 K	293.15 K	298.15 K	303.15 K	308.15 K	313.15 K	318.15 K	323.15 K
in ethanol	0.000371	0.000428	0.000506	0.000598	0.000748	0.000839	0.000993	0.00125	0.0015	0.0018
in isopropanol	0.000124	0.000163	0.000213	0.000253	0.000339	0.000405	0.000515	0.000653	0.000843	0.00107
in methanol	0.00252	0.00285	0.0032	0.00358	0.00397	0.00453	0.00515	0.00575	0.00675	0.00788
in n-propanol	0.000191	0.000225	0.000296	0.000347	0.000399	0.000464	0.000586	0.000694	0.000879	0.00108
